{"source": "patent US20070207975A1", "about": "“Materials and methods for treating and preventing Her-2/neu overexpressing, FAS-elevated cancer cells” (EVANSTON NORTHWESTERN HEALTHCARE, priority 2006, published 2007)", "assay_type_in_all_cases": "cell-based, human", "key": {"SK-Br3 and BT-474 cells": {"tested_on": "SK-Br3 and BT-474 cells", "assay": "Soft-agar colony-formation assay", "conditions": "OA, trastuzumab or co-exposure"}, "PARP": {"tested_on": "PARP", "assay": "Western blot of p85 PARP cleavage fragment", "conditions": "BT-474; 72 hours", "method": "FIG. 6. […] After 72 hours, a TUNEL analysis was performed using the DeadEnd® Fluorometric TUNEL System (Promega Inc.) according to the manufacturer's protocol. The immunofluorescence photomicrographs of cells undergoing apoptosis (green staining) and the corresponding DAPI-counterstained photomicrographs are shown. […] Equal amounts of total protein (50 μg per lane) were subjected to Western blot analyses with a specific antibody against the p85 fragment of PARP, and then re-probed with a β-actin antibody. […] Similar results were obtained in three independent experiments. […] For each pair of columns, the height of the columns on the left represents the sum of the effect of each agent alone and, therefore, the expected apoptotic cell death if their effect was additive when used in combination. […]\nThe lysates were cleared by centrifugation in an Eppendorf tube (15 minutes at 14,000 r.p.m. at 4° C.). Protein content was determined against a standardized control using the Pierce protein assay kit (Rockford, Ill.). […] The membranes were washed in TBS-T, horseradish peroxidase-conjugated secondary antibodies (Jackson Immunoresearch Laboratories) in TBS-T were added for 1 hour, and immunoreactive bands were detected by enhanced chemiluminescence reagent (Pierce). […] Densitometric values of protein bands were quantified using Scion Imaging Software (Scion Corp., Frederick, Md.)."}, "p27^Kip1": {"tested_on": "p27^Kip1", "assay": "Immunofluorescence of p27Kip1 cellular localization", "conditions": "BT-474; suboptimal trastuzumab, without or with OA; 72 hours", "method": "FIG. 7. Exogenous supplementation with OA synergistically enhances trastuzumab-induced up-regulation and nuclear accumulation of p27^Kip1. […] Equal amounts of total protein (50 mg per lane) were subjected to Western blot analyses with an anti-p27^Kip1 rabbit polyclonal antibody and then re-probed with a β-actin antibody. […] Similar results were obtained in three independent experiments. […] After 72 hours, p27^Kip1 cellular localization was evaluated by immunofluorescence following a 2 hour incubation with an anti-p27^Kip1 rabbit polyclonal antibody diluted 1:200 in 0.05% Triton X-100/PBS. Cellular localization of P27^Kip1 was detected by indirect immunofluorescence by incubating with TRITC-conjugated anti-rabbit IgG secondary antibody. Cells were examined and photographed using a Zeiss fluorescent microscope equipped with a built-in camera. […] Similar results were obtained in three independent experiments.\nCells were seeded at a density of 1×10^4 cells/well in a four-well chamber slide (Nalge Nunc International, Rochester, N.Y.). […] The cells were washed and then incubated for 2 hours with anti-p185^Her-2/neu or anti-p27^Kip1 antibodies, each separately diluted 1:200 in 0.05% Triton X-100/PBS. […] Indirect immunofluorescence was recorded on a Zeiss microscope. […]"}}}
{"substance": "trastuzumab: humanized monoclonal IgG1, binding with high affinity to the ectodomain of p185^Her-2/neu [reference compound]", "values": [{"measurement": "anchorage-independent colony formation in soft agar", "setting": "SK-Br3 and BT-474 cells", "result": "significantly blocked"}, {"measurement": "p85 PARP degradation product", "setting": "PARP", "result": "small amount"}, {"measurement": "translocation of p27^Kip1 from cytosol to cell nuclei", "setting": "p27^Kip1", "result": "significant translocation"}]}
